Test results published in patent US8173606B2, “Sulfated oligosaccharide derivatives” (Progen Pharmaceuticals Limited, priority 2004, dated 2012).

Protein sequences, listed by entry. Tags and fused reporters are not part of them. Residues count along the entry.
UniProt P05230, whole entry, species assumed: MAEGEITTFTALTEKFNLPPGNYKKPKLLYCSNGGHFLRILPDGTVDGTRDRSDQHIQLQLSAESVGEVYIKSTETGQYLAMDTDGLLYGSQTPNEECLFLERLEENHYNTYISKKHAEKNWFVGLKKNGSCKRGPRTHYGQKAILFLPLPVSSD
UniProt P09038, 143-288, species assumed: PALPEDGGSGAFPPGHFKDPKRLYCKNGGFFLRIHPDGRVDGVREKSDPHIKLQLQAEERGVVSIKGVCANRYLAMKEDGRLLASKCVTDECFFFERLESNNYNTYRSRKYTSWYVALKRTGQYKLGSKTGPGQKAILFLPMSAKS
UniProt P15692, 27-191 isoform P15692-4, species assumed: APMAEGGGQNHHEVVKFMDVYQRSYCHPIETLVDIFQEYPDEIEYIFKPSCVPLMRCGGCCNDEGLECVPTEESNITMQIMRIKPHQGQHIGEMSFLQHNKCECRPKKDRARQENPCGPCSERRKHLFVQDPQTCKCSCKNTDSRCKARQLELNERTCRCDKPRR

Assays:
[1] = rat, in vivo, iv, 2.5 mg/kg
Procedure: The polyol precursors for PG500, 501, 503, 504, 506 and PI-88 (2 mg of each) were desiccated under vacuum over P2O5 for 3 days. Into each vial was syringed 50 μL of a stock solution of 1.77 mg (2.0 mCi) of ^35SO3.pyridine complex and 2 mg SO3.Me3N in 300 μL of anhydrous DMF (Aldrich, redried over freshly ignited 3 A molecular sieves). A further 600 μL of anhydrous DMF was added to the SO3 vial and was distributed to each sample vial. The samples were heated to 60° for 66 hr. SO3.Me3N (14 mg in 300 μL anhydrous DMF) was added to each vessel and the resulting solutions were heated to 60° overnight. The vials were cooled to room temperature and stored at −80° C. awaiting purification.
Each sample was quenched by addition of Na2CO3 (sat. aqu. adjusted to pH 8-9), evaporated to dryness and subjected to SEC (Biogel P2, 2.6×90 cm, flow rate 30 mL/hr, 5 min/fraction). Fractions containing desired material were detected using a G-M counter and DMB test followed by CE.
Male Sprague Dawley rats (250-350 g) were used. […] The animals were carefully monitored during recovery (1-4 h).
All doses were administered as a bolus intravenous injection of 2.5 mg/kg in a dose volume of 2 mL/kg. The total amount of radioactivity administered to each rat was 0.5-10 μCi. […]

FGF-1 = FGF-1 (Homo sapiens, UniProt P05230); assay: SPR based solution affinity assay, growth factor binding (FGF-1); conditions: heparin-coated sensorchip, HBS-EP buffer, 25° C.; read-out: Kd aFGF
Procedure: (§1) Binding affinities of ligands for the growth factors FGF-1, FGF-2 and VEGF were measured using a surface plasmon resonance (SPR) based solution affinity assay. The principle of the assay is that heparin immobilised on a sensorchip surface distinguishes between free and bound growth factor in an equilibrated solution of the growth factor and a ligand. Upon injection of the solution, the free growth factor binds to the immobilised heparin, is detected as an increase in the SPR response and its concentration thus determined. A decrease in the free growth factor concentration as a function of the ligand concentration allows for the calculation of the dissociation constant, Kd. It is important to note that ligand binding to the growth factors can only be detected when the interaction involves the HS binding site, thus eliminating the chance of evaluating non-specific binding to other sites on the protein. […]
(§2) For the testing of growth factor binding activity, heparin-coated sensorchips were used. […] Ligands binding to FGF-1 and VEGF were measured in HBS-EP buffer (10 mM HEPES, pH 7.4, 150 mM NaCl, 3.0 mM EDTA and 0.005% (v/v) polysorbate 20), while binding to FGF-2 was measured in HBS-EP buffer containing 0.3 M NaCl.[5] […] For each assay mixture, 50-200 μL of solution was injected at 5-40 μL/min and the relative binding response measured. […]
(§3) [formula] and the binding equation[5] can be expressed as […]

heparanase = target: T1, heparanase (Homo sapiens, UniProt Q9Y251); assay: Heparanase inhibition, Microcon ultrafiltration assay; assay type: biochemical; conditions: 3H labelled HS, pH 5.0, 22° C., 2.5 h
T1 sequence (Q9Y251 158-543 limits assumed): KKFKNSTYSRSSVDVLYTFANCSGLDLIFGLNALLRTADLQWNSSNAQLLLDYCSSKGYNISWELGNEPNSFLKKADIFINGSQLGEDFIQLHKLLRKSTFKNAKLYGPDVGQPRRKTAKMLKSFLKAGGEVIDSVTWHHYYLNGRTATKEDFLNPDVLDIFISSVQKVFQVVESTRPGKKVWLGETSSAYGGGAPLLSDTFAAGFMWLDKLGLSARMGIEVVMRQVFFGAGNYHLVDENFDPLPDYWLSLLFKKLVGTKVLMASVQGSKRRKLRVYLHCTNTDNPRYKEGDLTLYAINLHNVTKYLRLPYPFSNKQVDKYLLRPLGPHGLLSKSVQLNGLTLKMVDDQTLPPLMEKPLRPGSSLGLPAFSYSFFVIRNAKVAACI
T1 sequence (Q9Y251 36-109 limits assumed): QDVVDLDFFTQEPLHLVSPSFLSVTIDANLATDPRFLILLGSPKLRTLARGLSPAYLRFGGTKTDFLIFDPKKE
Procedure: The heparanase assays were performed using a Microcon ultrafiltration assay. The assays rely on the principle of physically separating heparan sulfate (HS) that has been digested by heparanase from native HS to determine heparanase activity. The assay uses ultrafiltration devices (Microcon YM-10) to separate the smaller heparanase-cleaved HS fragments from native HS.
A reaction was set up with a volume of 90 μL, • 40 mM acetate buffer (pH 5.0) • 0.1 mg/mL BSA • 90 ng heparanase • 2.5 μM ^3H labelled HS • various concentrations of inhibitors.
The reactions were set up with all components except the ^3H labelled HS and allowed to equilibrate for 10 min at 22° C. The assays were then initiated by adding the HS and immediately 20 μL was taken, mixed with 80 μL of 10 mM phosphate (pH 7.0) and the 100 μL transferred to a Microcon YM-10 concentrator which was then centrifuged at approximately 14000 g for 5 min. The solution that passed through the membrane (filtrate) was retained. This sample was considered the time=0 sample. […]
The time=0 filtrate and the three 2.5 h filtrate samples were counted for ^3H. […] All inhibition assays were run with a heparanase standard assay which was identical to the assay composition above except no inhibitor was present and the amount of heparanase inhibition in the other assays determined by comparison with this standard.

FGF-2 = FGF-2 (Homo sapiens, UniProt P09038); assay: SPR based solution affinity assay, growth factor binding (FGF-2); conditions: heparin-coated sensorchip, HBS-EP buffer containing 0.3 M NaCl, 25° C.; read-out: Kd bFGF
Procedure: as §1, §2, §3

VEGF = VEGF (Homo sapiens, UniProt P15692); assay: SPR based solution affinity assay, growth factor binding (VEGF); conditions: heparin-coated sensorchip, HBS-EP buffer, 25° C.
Procedure: as §1, §2, §3

Substance	t1/2* (apparent) [1]	Kd (FGF-1) [nM]	IC50 (heparanase) [nM]	Kd (FGF-2) [nM]	Kd (VEGF) [nM]
PEG2000 Polysulfate [PG506]	0.59 ± 0.01^ h	0.088 ± 0.017	2120 ± 152	114 ± 13	3.5 ± 0.8
PEG5000 Polysulfate [PG504]	2.81 ± 0.04 h	0.361 ± 0.028	6030 ± 1050	150 ± 9	8.1 ± 0.6
